Experimental data as given in publication PMC6917698, “One-Pot Radiosynthesis and Biological Evaluation of a Caspase-3 Selective 5-[^123,125I]iodo-1,2,3-triazole derived Isatin SPECT Tracer” (Scientific Reports, 2019).

Molecular target: T1, Recombinant human caspase-3 (Homo sapiens, UniProt P42574)
T1 sequence (P42574 29-175 limits assumed): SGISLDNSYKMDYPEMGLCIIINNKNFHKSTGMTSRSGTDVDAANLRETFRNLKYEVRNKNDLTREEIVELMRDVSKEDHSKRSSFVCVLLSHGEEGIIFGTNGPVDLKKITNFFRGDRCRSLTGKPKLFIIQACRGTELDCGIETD
T1 sequence (P42574 176-277 limits assumed): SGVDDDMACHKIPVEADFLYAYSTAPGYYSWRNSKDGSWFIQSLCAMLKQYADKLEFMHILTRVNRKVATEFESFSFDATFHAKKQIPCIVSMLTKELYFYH
Experiment: Caspase enzyme inhibition assay (fluorogenic Ac-DEVD-AMC), caspase-3

CC(=O)N[C@@H](CC(=O)O)C(=O)N[C@@H](CCC(=O)O)C(=O)N[C@H](C(=O)N[C@H](C=O)CC(=O)O)C(C)C [Ac-DEVD-CHO, reference compound]
Ki: 170 pM
